Data reported in patent publication US20230242634A1.

By UniProt entry, the sequences of proteins in these tests, tags left out. Residues count along the entry.
UniProt P01375, 77-233 limits assumed: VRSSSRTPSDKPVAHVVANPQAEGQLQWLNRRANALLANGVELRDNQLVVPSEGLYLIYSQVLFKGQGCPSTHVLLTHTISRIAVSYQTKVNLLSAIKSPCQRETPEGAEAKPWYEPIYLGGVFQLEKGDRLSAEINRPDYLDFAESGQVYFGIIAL

Molecular target: human TNF-α (human) (UniProt P01375)
Test: cell-based or functional assay

Q002 (Certolizumab), the primary drug of Certolizumab (antibody)
IC50 (M), TNF-α-mediated killing of L929 cells (CCK-8): 1.3e-06 M
